Test results reported in US8134013B2, “Amide compound and thrombopoietin receptor activator” (Nissan Chemical Industries, Ltd., priority 2004, dated 2012).

Amino acid sequences for entries named in this document (tags omitted). Residues count along the entry.
UniProt P40238, 26-635 limits assumed: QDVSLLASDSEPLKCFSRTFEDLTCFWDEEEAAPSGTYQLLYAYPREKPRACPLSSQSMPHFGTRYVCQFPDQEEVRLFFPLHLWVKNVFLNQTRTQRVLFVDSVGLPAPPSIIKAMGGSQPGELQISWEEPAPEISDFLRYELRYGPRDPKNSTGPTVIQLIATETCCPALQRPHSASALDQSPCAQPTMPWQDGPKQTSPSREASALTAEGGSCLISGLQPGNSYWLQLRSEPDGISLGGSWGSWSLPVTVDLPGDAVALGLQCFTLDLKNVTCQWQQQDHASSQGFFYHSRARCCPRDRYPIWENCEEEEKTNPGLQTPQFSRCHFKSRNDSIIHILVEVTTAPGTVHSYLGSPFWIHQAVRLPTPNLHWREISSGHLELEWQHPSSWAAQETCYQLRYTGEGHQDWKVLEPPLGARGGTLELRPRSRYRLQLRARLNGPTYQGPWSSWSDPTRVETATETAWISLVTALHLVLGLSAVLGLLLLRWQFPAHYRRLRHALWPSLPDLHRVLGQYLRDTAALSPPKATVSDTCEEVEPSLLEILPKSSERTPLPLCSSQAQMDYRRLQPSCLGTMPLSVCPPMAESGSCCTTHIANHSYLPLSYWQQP

Molecular target: human thrombopoietin receptor (c-mpl) (Homo sapiens, UniProt P40238)
Experiment: Stimulation of proliferation of thrombopoietin-dependent cell line UT7/EPO-mpl (WST-8)
Conditions: human leukemic cell line UT-7/EPO-mpl; 4 days incubation; relative to 10 ng/mL TPO
Experimental: The response of thrombopoietin receptor to the compound of Synthetic Example 2 of the present invention was assayed using a human leukemic cell line, UT7/EPO-mpl.
UT7/EPO-mpl is a stable transformed cell line obtained by introducing into human leukemic cell line UT7/EPO a vector that induces expression of human thrombopoietin receptor (c-mpl) under control of cytomegalovirus immediate-early promoter by the method of Takatoku et al. (J. Biol. Chem., 272:7259-7263 (1997)). […] These two cell lines were subcultured in IMDM (GIBCO) containing 10% fetal bovine serum (Thermo Electron or BioWest) using a CO2 incubator (5% CO2, 37° C.).
The subcultured cells described above were washed twice with PBS and suspended in IMDM containing 10% fetal bovine serum at a cell density of 6×10^4 cells/ml. The cell suspension was transferred to a 96-well tissue culture plate (CORNING) in 100-μl aliquots. Then either thrombopoietin (Pepro Tech EC, or the compound of Synthetic Example 2 dissolved in dimethyl sulfoxide was diluted 83-fold with IMDM containing 10% fetal bovine serum and added to the aforementioned cell suspension in 20-μl aliquots. The cell suspension was incubated in a CO2 incubator (5% CO2, 37° C.) for 4 days. Cell proliferation was assayed using WST-8 reagent (Kishida Chemical Co., Ltd.) according to instructions by the manufacturer. A 10-μl aliquot of 5 mM WST-8 reagent solution was added to each well of the tissue culture plate, and the plate was incubated at 37° C. for 4 hours. The formazan pigment generated was detected by measuring the absorbance at 450 nm with a 96-well microplate reader (Nihon Molecular Devices, Spectramax 190).
The compounds of the following Synthetic Examples were tested according to the method of Assay Example 1 to determine the concentration of each compound that yields a growth rate corresponding to 50% of the growth of human leukemic cell line UT-7/EPO-mpl observed in the presence of 10 ng/mL TPO (EC50).

Row | Compound | EC50 (concentration that yields a growth rate corresponding to 50% of the growth observed in the presence of 10 ng/mL TPO) [ng/mL]
1 | C/C(=N\NC(=O)c1ccc(C(=O)NN2CCN(C)CC2)s1)c1csc(-c2ccc(Cl)c(Cl)c2)c1O | 3.1
2 | CC(=NNC(=S)Nc1cccc(C(=O)NCCC(N)=O)c1)c1nn(C)c(-c2ccc(C(F)(F)F)cc2)c1O | 2.7
3 | CC(=NNC(=O)c1ccc(C(=O)NCC(=O)O)s1)c1csc(-c2ccc(Cl)c(Cl)c2)c1O | 2.2
4 | CC(=NNC(=O)c1ccc(C(O)CC(=O)O)cc1)c1csc(-c2ccc(Cl)c(Cl)c2)c1O (stereo not drawn) | 3.0
5 | C/C(=N\NC(=O)c1ccc(C(=O)NCC2CCCO2)s1)c1csc(-c2ccc(Cl)c(Cl)c2)c1O (stereo not drawn) [Synthetic Example 2, 5-{1-[5-(3,4-Dichlorophenyl)-4-hydroxythiophen-3-yl]ethylidenehydrazinocarbonyl}thiophene-2-carboxylic acid(tetrahydrofuran-2-ylmethyl)amide] | 2.1
6 | CC(=NNC(=O)c1ccc(C(=O)NN2CCCCC2)s1)c1csc(-c2ccc(Cl)c(Cl)c2)c1O | 5.6
7 | CC(=NNC(=S)Nc1ccc2c(c1)OCC(=O)N2)c1csc(-c2ccc(Cl)c(Cl)c2)c1O | 16
8 | C/C(=N\NC(=S)Nc1ccc2c(c1)OCCO2)c1csc(-c2ccc(Cl)c(Cl)c2)c1O | 32
9 | C/C(=N\NC(=O)c1ccc(C(=O)NCCC(=O)O)s1)c1csc(-c2ccc(Cl)c(Cl)c2)c1O | 2.3
10 | CC(=NNC(=S)Nc1ccc2c(c1)NC(=O)CO2)c1csc(-c2ccc(Cl)c(Cl)c2)c1O | 16
11 | CC(=NNC(=O)c1ccc(C(=O)NN2CCOCC2)s1)c1csc(-c2ccc(Cl)c(Cl)c2)c1O | 0.35
12 | C/C(=N\NC(=S)Nc1cccc(C(=O)NCCC(N)=O)c1)c1csc(-c2ccc(Cl)c(Cl)c2)c1O | 2.9
13 | CC(=NNC(=O)c1ccc(C(=O)NCCN2CCCC2)s1)c1csc(-c2ccc(Cl)c(Cl)c2)c1O | 2.7
14 | C/C(=N\NC(=O)c1ccc(C(=O)N2CCC(N3CCCC3)CC2)s1)c1csc(-c2ccc(Cl)c(Cl)c2)c1O | 0.40

Further lines, results first:

Row | EC50 (concentration that yields a growth rate corresponding to 50% of the growth observed in the presence of 10 ng/mL TPO) [ng/mL] | Compound
15 | 1.5 | CC(=NNC(=O)c1ccc(C(=O)NN)s1)c1csc(-c2ccc(Cl)c(Cl)c2)c1O
16 | 3.3 | CC(=NNC(=O)c1ccc(C(=O)N(C)CCC(=O)O)s1)c1csc(-c2ccc(OC(F)(F)F)cc2)c1O
17 | 0.27 | C/C(=N\NC(=O)c1ccc(C(=O)N2CC(O)C(O)C2)s1)c1csc(-c2ccc(C(F)(F)F)cc2)c1O (stereo not drawn)
18 | 7.7 | CC(=NNC(=S)Nc1ccc(Cl)c(C(=O)NCCC(=O)O)c1)c1nn(C)c(-c2ccc(C(F)(F)F)cc2)c1O
19 | 3.1 | CC(=NNC(=S)Nc1cccc(C(=O)NCCC(N)=O)c1)c1nn(C)c(-c2ccc(Cl)c(Cl)c2)c1O
20 | 23 | C/C(=N\NC(=S)Nc1ccc2c(c1)OCC(=O)N2)c1nn(C)c(-c2ccc(C(F)(F)F)cc2)c1O
21 | 0.37 | C/C(=N\NC(=O)c1ccc(C(=O)Cn2ccc(=O)cc2)s1)c1csc(-c2ccc(Cl)c(Cl)c2)c1O
